According to PubChem BioAssay AID504462 (Sanford-Burnham Center for Chemical Genomics, 2011):
The list shows a part of the results, in another mix than the full data. Activity calls are given as the source filed them. Rule as the data show it: active = inhibition above about 40%; inactive = the rest.

Protein sequences, listed by entry. Tags and fused reporters are not part of them.
UniProt Q9Y4P1, whole entry: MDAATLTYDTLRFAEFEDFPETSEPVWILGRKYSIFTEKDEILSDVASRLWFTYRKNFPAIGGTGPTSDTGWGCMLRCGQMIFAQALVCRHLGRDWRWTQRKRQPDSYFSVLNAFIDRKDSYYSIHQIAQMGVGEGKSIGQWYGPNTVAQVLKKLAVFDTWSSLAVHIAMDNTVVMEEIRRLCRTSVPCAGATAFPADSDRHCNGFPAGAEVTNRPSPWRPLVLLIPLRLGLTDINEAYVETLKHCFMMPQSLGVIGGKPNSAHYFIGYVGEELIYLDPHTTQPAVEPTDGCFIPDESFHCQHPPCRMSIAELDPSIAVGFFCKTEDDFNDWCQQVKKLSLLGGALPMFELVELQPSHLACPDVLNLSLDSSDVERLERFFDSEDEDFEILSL

What follows are compounds tested against Cysteine protease ATG4B (Homo sapiens) (UniProt Q9Y4P1) (assay: ATG4B protease inhibitors, primary screen, biochemical, fluorescence, uHTS (AID 504462)). Conditions: ATG4B cleavage of LC3-PLA2, NBD-HPC fluorescence, 1 h; at 8.33 µM; hits give high values.

| Structure (SMILES) | inhibition |
| --- | --- |
| CCC(=O)N(c1ccccc1)C1(COC)CCN(CCc2cccs2)CC1 | inactive: -7.62% |
| CCC(=O)N(c1ccccc1)C1(COC)CCN(CCn2nnn(CC)c2=O)CC1 | inactive: -4.44% |
